Source: paper PMC9287337 (Scientific Reports, 2022)

Key:
Format in all cases: cell-based, mouse
C2C12 cells = test: RealTime-Glo MT cell viability assay; conditions: C2C12, 24 h, Supplemental Fig. S3
Protocol: To first determine how these novel compounds effect the health of C2C12 cells and to establish the range of subtoxic concentrations for future studies, cell viability assays were carried out. Serum-starved C2C12 cells were exposed to increasing concentrations (0.01–1000 µM) of SY-LB-35 and SY-LB-57 for 24 h. Exposure to Triton X-100 (125 µM) is toxic to cells and was used as a negative control for cell viability. Following the 24-h exposure period, the MT Cell viability substrate was added to the cultures. Only viable cells can reduce the substrate and, thereby, generate a luminescent signal. Any decrease in luminescence was considered an indication of cell death or toxicity. In contrast, increases in luminescence signals are typically due to proliferation of cells in the treated cultures. […]
Next, reagents from the RealTime-Glo™ MT Cell Viability Assay Kit (Promega, Madison, WI, USA) were diluted in SS medium and used according to manufacturer’s protocol. Cellular luminescence was measured using the FilterMax F5 Multi-mode Microplate Reader (Molecular Devices, San Jose, CA, USA). Data from three independent experiments with individual experiments carried out in triplicate was determined and reported as a percentage of control.

[1] = tested on: p-Smad1/5/8 (Smad phosphorylation); test: Western blot of p-Smad normalized to total Smad; conditions: 50 ng/mL, 30 min
Protocol: To investigate whether the new indolyl-benzimidazole compounds activate BMP receptor-dependent signaling pathways, the levels of p-Smad in serum-starved C2C12 cells, treated for 30 min with SY-LB-35 and SY-LB-57, were assessed by Western blot analysis. Whole cell lysates of treated C2C12 cells were probed for p-Smad using phospho-specific anti-Smad antibodies. p-Smad levels were normalized against total Smad levels. BMP2-stimulated cells served as positive control and unstimulated cells helped to establish the baseline levels of p-Smad.
(§1) C2C12 cells (3 mL) were seeded into 35 mm dishes at 7.5 × 10^4 cells/mL in complete growth medium, incubated to reach 80% confluence and serum-starved for 16–18 h. Next, cells were treated with 50 ng/mL BMP2 and increasing concentrations of SY-LB-35 or SY-LB-57 for 15 min, 30 min or 24 h. Thereafter, the cultures were washed with ice-cold 1X TBS for 2 min. […]
(§2) Laemmli sample buffer (4X) was added to the whole cell lysates (20 µg) to a final concentration of 1X and heated at 100 °C for 5 min. […] Finally, the blots were developed using SuperSignal ™ West Femto HRP Substrate solutions (Thermo Scientific, Rockford, IL, USA) and analysed using the Omega Lum™ G Imaging System (San Francisco, CA, USA). Quantification of chemiluminescent signals was carried out using ImageJ (Image Processing and Analysis in Java 1.8.0_112).

[2] = tested on: p-Smad nuclear translocation; test: Immunofluorescent labeling of p-Smad nuclear translocation; conditions: 50 ng/mL, 30 min
Protocol: To establish that SY-LB-35 and SY-LB-57 also stimulate the translocation of phosphorylated Smad to the nucleus, immunofluorescent labeling was performed. Serum-starved C2C12 cells grown on poly-D-lysine (PDL)-coated coverslips were stimulated with BMP2 (50 ng/mL), SY-LB-35 (1 µM) or SY-LB-57 (1 µM) for 30 min. The cultures were fixed and labelled with anti-p-Smad antibodies (red) and DAPI (blue), which stains the nuclei (Fig. 5B–E). In control, unstimulated C2C12 cells, low levels of diffuse, cytoplasmic p-Smad labeling were detected (Fig. 5B). […] Thus, like BMP2, SY-LB-35 and SY-LB-57 not only strongly stimulated Smad phosphorylation but also prompted p-Smad nuclear translocation.
(§3) In a 24-well plate, 12 mm glass coverslips were coated for 1 h at RT with 500 µL PDL (0.1 mg/mL/ 0.1 M Boric acid), washed 4 times with cell culture-grade distilled water and sterilized under UV light for 30 min. C2C12 cells (500 µL) were seeded onto the PDL-coated coverslips at a density of 1 × 10^5 cells/mL, grown to 80% confluency and starved in SS medium for 2 h. Next, the cells were treated with 50 ng/mL BMP2 or 1 µM SY-LB-35 or SY-LB-57 for 15 min (for p-Akt labelling) or 30 min (for p-Smad labelling). Cells were then fixed using ice-cold 4% PFA/PBS for 10 min at RT. […]

[3] = tested on: p-Akt (Akt phosphorylation); test: Western blot of p-Akt normalized to total Akt; conditions: 50 ng/mL, 15 min
Protocol: (§4) To ascertain whether these novel indolyl-benzimidazole compounds can also activate non-canonical BMP-related pathways, stimulation of the PI3K/Akt pathway was assessed by first monitoring changes in the level of p-Akt in response to SY-LB-35 and SY-LB-57. Serum-starved C2C12 cells were stimulated with BMP2 (50 ng/mL) or increasing concentrations of SY-LB-35 and SY-LB-57 (0.01–10 µM) for 15 min.
C2C12 cells (3 mL) were seeded into 35 mm dishes at 7.5 × 10^4 cells/mL in complete growth medium, incubated to reach 80% confluence and serum-starved for 16–18 h. Next, cells were treated with 50 ng/mL BMP2 and increasing concentrations of SY-LB-35 or SY-LB-57 for 15 min, 30 min or 24 h. Thereafter, the cultures were washed with ice-cold 1X TBS for 2 min. Lysis Buffer (Cell Signaling Technology, Danvers, MA, USA) supplemented with 1 mM PMSF (phenylmethylsulphonyl fluoride) was added to the cultures and whole cell lysates were prepared.
as §2

[4] = tested on: p-Akt cytoplasmic localization; test: Immunofluorescent labeling of p-Akt; conditions: 50 ng/mL, 15 min
Protocol: as §4
as §3, with “RT. Next, the coverslips were washed with ice-cold 1X PBS, transferred to a humidified chamber and incubated (100 µL/coverslip) in Permeabilization solution (0.1% Triton X-100/PBS) for 15 min, then Blocking Buffer (10% heat inactivated goat serum/ 0.3% Triton X-100/PBS) for 30 min. Anti-p-Smad antibodies in Antibody Dilution Buffer (1% BSA/0.1% Tween 20/PBS) were added for 1 h and the coverslips were washed 4 times with 1X PBS.” for “RT.”

[5] = tested on: p-PI3K (PI3K phosphorylation); test: Western blot of p-PI3K normalized to β-actin; conditions: 50 ng/mL, 15 min
Protocol: To directly assess the activation of the PI3K enzyme, Western blot analysis was carried out on C2C12 cell whole cell lysates after a 15-min stimulation with 0.01–10 µM SY-LB-35 or SY-LB-57. SY-LB-35 and SY-LB-57 stimulated significant increases in the level of PI3K phosphorylation at 15 min at all concentrations tested (> 300% increase, ****p < 0.0005; Fig. 7A and Supplemental Fig. S6). Thus, the novel compounds appear to directly affect the phosphorylation of the PI3K enzyme.
as §1, §2

PI3K enzyme = test: PI3K ELISA on PI3K immunoprecipitated from treated cells; conditions: 50 ng/mL, 15 min
Protocol: To investigate whether the novel benzimidazoles directly regulate PI3K enzymatic activity, serum-starved C2C12 cells were stimulated with 50 ng/mL BMP2, 10 µM SY-LB-35, or 10 µM SY-LB-57 for 15 min and whole cell lysates were prepared. PI3K enzyme was immunoprecipitated and processed in a PI3K ELISA (Fig. 7B). A standard curve of known concentrations of PIP3 versus absorbance was plotted and used to determine the amount of PIP3 generated from a PIP2 substrate by active PI3K enzyme immunoprecipitated from the treated cell samples (Supplemental Fig. S7). The enzyme activity is expressed as the amount of product (PIP3) generated in each sample by the PI3K enzyme per minute of reaction.
C2C12 cells were seeded in 35-mm dishes at 7 × 10^4 cells/mL and incubated at 37 °C in 5% CO2 to reach 80% confluency. The cells were starved for 16–18 h and then stimulated with BMP2 (50 ng/mL) as positive control and SY-LB-35 and SY-LB-57 at 10 µM for 15 min at 37 °C. Cells (~ 10^6) per treatment were collected to prepare whole cell lysates followed by exposure to three freeze/thaw cycles in liquid nitrogen. […] The optical density of the PIP3 standards and the reactions containing immunoprecipitated PI3K from treated samples was measured at 450 nm.

[6] = tested on: type I BMP receptor-dependent p-Smad; test: Western blot of p-Smad in presence or absence of Dorsomorphin; conditions: 50 ng/mL, 30 min
Protocol: To examine the contribution of type I BMP receptor activity to SY-LB-35- and SY-LB-57-stimulated Smad signaling, serum-starved C2C12 cells were stimulated with SY-LB-35 or SY-LB-57 at 1 µM for 30 min in presence or absence of Dorsomorphin (DM; a non-selective inhibitor of type I BMP receptors; 10 µM). Total whole cell lysates were prepared and used for Western blot analysis of Smad phosphorylation using anti-p-Smad antibodies.
as §1, §2

Question: How did the “Effect on cell viability” value (C2C12 cells) turn out when “BMP2: recombinant Bone Morphogenetic Protein 2, positive control” was run?
Answer: Its value is “Increases in cell viability”.

Question: And the “Increase in p-Smad level over control” value [1]?
Answer: Its value is 95 % over control and ~ 100 % over control.

Question: What about the “p-Smad level, percent of control” value [1] of the same substance?
Answer: The value was 195%.

Question: What about the p-Smad nuclear translocation [2] of the same substance?
Answer: Its p-Smad nuclear translocation is “drastic increase in the level of phosphorylated Smad localized to the nucleus”.

Question: What about the “Increase in p-Akt level over control” value [3] of the same substance?
Answer: Its value is 813 % over control.

Question: And the “p-Akt level, percent of control” value [3]?
Answer: The value was 913%.

Question: And the p-Akt immunofluorescent labeling [4]?
Answer: The p-Akt immunofluorescent labeling was “drastic increase in the level of phosphorylated Akt localized to the cytoplasm”.

Question: What about the “p-PI3K level, percent of control” value [5] of the same substance?
Answer: The value was 589%.

Question: And the “PIP3 produced, higher compared to control untreated cells” value (PI3K enzyme)?
Answer: Its value is 30%.

Question: What about the “Amount of PIP3 produced by PI3K enzyme” value (PI3K enzyme; control 0.61 pmol) of the same substance?
Answer: Its value is 0.79 pmol.

Question: And the “p-Smad level, DM(+)” value ([6]; Dorsomorphin 10 µM pretreatment 1 h)?
Answer: The value was 122%.

Question: And the “p-Smad level, DM(−)” value ([6]; without Dorsomorphin)?
Answer: The value was 428%.

Where “and” joins values, the source holds several entries; their conditions need not be identical. Identical values can stand only once.
